ERp5 inh: ERp5 (human) disulfide isomerase inhibition; actives 0.05% (n = 350,000); inhibition, % at 9.99 µM; ERp5 insulin aggregation, absorbance 650 nm, 90 min; AID 651711;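 active = mean replicate inhibition above about 25%, with every replicate also reaching it, limit read from the data, passing the limit was not always enough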
Yeast UUG start: modulators of start codon recognition fidelity in yeast; AID 602363; activity score, % at 18.7 µM; S. cerevisiae UUG-firefly luciferase reporter, luminescence/redox ratio; 0.13% of 350,000 active;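 active = replicate mean at a twofold rise or more, about +100% in these data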;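 note: firefly luciferase made from a UUG start codon reports start codon fidelity; reporter light over untreated wells divided by growth signal over untreated wells; some hits fall short of that in this replicate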
Cneo AK release: Cryptococcus neoformans lysis via adenylate kinase release; AID 651654; lysis activity, % at 15 µM; C. neoformans lysis, adenylate kinase release luminescence, 4 h; normalised: neutral wells 0, clomiphene wells 100; actives 0.2% (n = 360,000);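 active = mean lysis activity across replicates of at least 80%, whatever share of replicates individually reach that level; inactive = mean lysis activity below 80%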
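Material: C. neoformans cells; Schedule: 4 h static compound exposure, 37 °C, read 1 h post-reagent; Measured by: adenylate kinase release luminescence; Read-out: signal increase indicating cell lysis; Controls: Clomiphene as positive lysis control.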
PDI turbidity: inhibitors of human protein disulfide isomerase | P07237 | PDI insulin aggregation turbidity, A650, 90 min | inhibition, % at 10 µM | actives 0.052% (n = 350,000);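 active = mean inhibition across replicates of 30% or more, whatever share of single replicates reach that level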
* = called active by the depositor; x = no result. The list is not random: actives were taken first. Their share in the collection is about 0.34%.

Key to letters – A = ERp5 inh; B = Yeast UUG start; C = Cneo AK release; D = PDI turbidity
> O=C(C[C@@H]1C[C@H]2c3cc(NC(=O)c4cccnc4)ccc3O[C@H]2[C@@H](CO)O1)NCCc1ccccc1
  A = -0.2 | B = x | C = 10.9 | D = x
> O=C(O)C[C@@H]1C[C@@H]2c3cc(NC(=O)CC4CC4)ccc3O[C@@H]2[C@@H](CO)O1
  A = 4.5 | B = 49.8* | C = -1.0 | D = x
> O=C(O)C[C@@H]1C[C@@H]2c3cc(NC(=O)CC4CC4)ccc3O[C@@H]2[C@H](CO)O1
  A = -3.7 | B = -6.7 | C = -11.3 | D = x
> O=C(C[C@H]1CC[C@@H]2[C@H](COC[C@H](O)CN2C(=O)c2ccccc2F)O1)N1CCOCC1
  A = 3.1 | B = -5.9 | C = 2.8 | D = x
> CCCN1C[C@@H](C)[C@H](OC)CN(C)C(=O)c2ccc(NC(=O)C3CCC3)cc2OC[C@@H]1C
  A = -1.7 | B = -12.6 | C = 0.6 | D = x
> COc1ccc(S(=O)(=O)N(C)C[C@@H]2Oc3c(NS(=O)(=O)c4ccc(C)cc4)cccc3C(=O)N([C@@H](C)CO)C[C@@H]2C)cc1
  A = 0.2 | B = x | C = -6.7 | D = x
> COCC(=O)Nc1ccc2c(c1)[C@@H]1C[C@H](CC(=O)N3CCCCC3)O[C@H](CO)[C@@H]1O2
  A = x | B = 20.7 | C = 32.7 | D = x
> Cc1ccc2c(c1)Oc1ccc([N+](=O)[O-])cc1C(=O)N2
  A = -0.7 | B = x | C = x | D = 0.1
> Cc1ccc2c(c1)Oc1ccc(NC(=O)CCl)cc1C(=O)N2
  A = x | B = x | C = x | D = 92.1*
> C[C@@H]1CCCCO[C@H](CN(C)C(=O)c2ccncc2)[C@@H](C)CN([C@H](C)CO)C(=O)c2cc(NC(=O)c3ccccc3)ccc2O1
  A = -6.7 | B = x | C = 37.7 | D = x

Next records
Key to letters – A = ERp5 inh; B = Yeast UUG start; C = Cneo AK release; D = PDI turbidity
> O=C(C[C@@H]1CC[C@@H]2[C@H](COC[C@@H](O)CN2S(=O)(=O)c2ccccc2)O1)NCCN1CCCC1
  A = 43.0* | B = x | C = x | D = x
> O=C(C[C@H]1CC[C@H]2[C@@H](COC[C@@H](O)CN2S(=O)(=O)c2ccccc2)O1)NCCN1CCCCC1
  A = -1.5 | B = -2.2 | C = -1.4 | D = x
> CNC(=O)C[C@@H]1CC[C@@H]2[C@H](COC[C@H](O)CN2S(=O)(=O)c2cccc(Cl)c2)O1
  A = 2.0 | B = x | C = 100.3* | D = x
> Cc1ccc(S(=O)(=O)N2C[C@@H](O)COC[C@H]3O[C@H](CC(=O)NCc4ccc5c(c4)OCO5)CC[C@@H]32)cc1
  A = 20.7 | B = 47.5 | C = 104.2* | D = x
> O=C(C[C@@H]1CC[C@@H]2[C@H](COC[C@H](O)CN2S(=O)(=O)c2cccc(Cl)c2)O1)Nc1ccccc1
  A = -2.1 | B = 9.7 | C = -5.2 | D = x
> COc1ccc2c3c(n(C)c2c1)[C@@H](CO)NCC31CN(CC2CC2)C1
  A = -1.8 | B = x | C = x | D = x
> CCCN1C[C@@H](C)[C@@H](OC)CN(C)C(=O)c2ccc(NC(=O)c3cnccn3)cc2OC[C@H]1C
  A = -0.9 | B = -4.8 | C = -0.5 | D = x
> O=C(O)[C@H]1[C@H](CO)[C@H]2Cn3c(ccc(C4=CCCCC4)c3=O)[C@H]2N1C(=O)Cc1cccnc1
  A = 0.1 | B = x | C = x | D = x
> C[C@@H]1CCCCO[C@@H](CN(C)S(=O)(=O)c2ccc(F)cc2)[C@H](C)CN([C@H](C)CO)C(=O)c2cc(NS(=O)(=O)c3ccc(F)cc3)ccc2O1
  A = x | B = -4.9 | C = -14.4 | D = x
> C[C@@H]1CN([C@@H](C)CO)C(=O)c2cc(NS(=O)(=O)c3ccc(F)cc3)ccc2O[C@@H](C)CCCCO[C@H]1CN(C)S(=O)(=O)c1ccc(F)cc1
  A = x | B = 9.6 | C = 101.0* | D = x

(further entries)
Key to letters – A = ERp5 inh; B = Yeast UUG start; C = Cneo AK release; D = PDI turbidity
> C[C@H]1CN([C@@H](C)CO)C(=O)c2cc(NS(=O)(=O)c3ccc(F)cc3)ccc2O[C@@H]1CN(C)S(=O)(=O)c1ccccc1
  A = x | B = 27.6 | C = 104.5* | D = x
> C[C@@H]1CCCCO[C@@H](CN(C)S(=O)(=O)c2ccccc2)[C@H](C)CN([C@@H](C)CO)C(=O)c2cc(NC(=O)Nc3ccc(F)cc3)ccc2O1
  A = -1.3 | B = 29.3 | C = 104.7* | D = x
> COc1ccc(NC(=O)Nc2ccc3c(c2)C(=O)N([C@@H](C)CO)C[C@H](C)[C@@H](CN(C)S(=O)(=O)c2ccc(Cl)cc2)OCCCC[C@@H](C)O3)cc1
  A = 1.4 | B = -5.2 | C = -17.5 | D = x
> COc1ccc(NC(=O)Nc2ccc3c(c2)C(=O)N([C@H](C)CO)C[C@@H](C)[C@H](CN(C)S(=O)(=O)c2ccc(Cl)cc2)OCCCC[C@@H](C)O3)cc1
  A = -2.7 | B = 6.9 | C = 87.1* | D = x
> C[C@@H]1CCCCO[C@H](CN(C)S(=O)(=O)c2ccccc2)[C@@H](C)CN([C@@H](C)CO)C(=O)c2cc(NC(=O)Nc3ccc(F)cc3)ccc2O1
  A = -3.2 | B = 0.6 | C = 2.4 | D = x
> C[C@@H]1CN([C@H](C)CO)C(=O)c2cc(NS(=O)(=O)c3ccc(F)cc3)ccc2O[C@@H](C)CCCCO[C@H]1CN(C)Cc1ccc2c(c1)OCO2
  A = -8.5 | B = 13.2 | C = 12.4 | D = x
> C[C@@H]1CCCCO[C@@H](CN(C)C(=O)CCC(F)(F)F)[C@@H](C)CN([C@@H](C)CO)C(=O)c2cc(NS(=O)(=O)c3ccc(Cl)cc3)ccc2O1
  A = 70.2* | B = x | C = 3.0 | D = x
> C[C@@H]1CCCCO[C@@H](CN(C)CC2CCCCC2)[C@@H](C)CN([C@@H](C)CO)C(=O)c2cc(NS(=O)(=O)c3ccccc3)ccc2O1
  A = -2.1 | B = 50.2 | C = 80.1* | D = x
> Cc1ccc(S(=O)(=O)Nc2ccc3c(c2)C(=O)N([C@@H](C)CO)C[C@@H](C)[C@@H](CN(C)S(=O)(=O)c2ccc(Cl)cc2)OCCCC[C@H](C)O3)cc1
  A = x | B = 2.7 | C = 100.7* | D = x
> C[C@H]1CCCCO[C@H](CN(C)CC2CCCCC2)[C@@H](C)CN([C@@H](C)CO)C(=O)c2cc(NS(=O)(=O)c3ccccc3)ccc2O1
  A = 3.5 | B = 0.3 | C = 1.8 | D = 9.2

Remaining list, next part
Key to letters – A = ERp5 inh; B = Yeast UUG start; C = Cneo AK release; D = PDI turbidity
> C[C@@H]1CCCCO[C@H](CN(C)C(=O)CCC(F)(F)F)[C@H](C)CN([C@@H](C)CO)C(=O)c2cc(NS(=O)(=O)c3ccc(Cl)cc3)ccc2O1
  A = 3.9 | B = x | C = 1.5 | D = x
> C[C@@H]1CN([C@@H](C)CO)C(=O)c2cc(NS(=O)(=O)c3ccc(F)cc3)ccc2O[C@@H](C)CCCCO[C@@H]1CN(C)Cc1ccc2c(c1)OCO2
  A = 5.0 | B = 35.0 | C = 99.2* | D = x
> C[C@@H]1CN([C@@H](C)CO)C(=O)c2cccc(N(C)C)c2O[C@@H]1CN(C)S(=O)(=O)c1cn(C)cn1
  A = 1.3 | B = -10.2 | C = 0.0 | D = x
> C[C@@H]1CCCCO[C@@H](CN(C)S(=O)(=O)c2ccc(F)cc2)[C@@H](C)CN([C@H](C)CO)C(=O)c2cc(NS(=O)(=O)c3ccc(F)cc3)ccc2O1
  A = x | B = -9.1 | C = -0.7 | D = x
> C[C@@H]1CCCCO[C@@H](CN(C)S(=O)(=O)c2ccc(F)cc2)[C@@H](C)CN([C@@H](C)CO)C(=O)c2cc(NS(=O)(=O)c3ccc(F)cc3)ccc2O1
  A = x | B = 27.5 | C = 104.1* | D = x
> C[C@@H]1CN([C@@H](C)CO)C(=O)c2cc(NS(=O)(=O)c3ccc(Cl)cc3)ccc2O[C@@H]1CN(C)C(=O)NC1CCCCC1
  A = -5.2 | B = -0.5 | C = -4.3 | D = x
> C/C=C/c1ccc2c(c1)O[C@@H](CN(C)S(C)(=O)=O)[C@H](C)CN([C@H](C)CO)S2(=O)=O
  A = 88.3* | B = 13.4 | C = -8.7 | D = x
> COc1ccccc1C#Cc1ccc2c(c1)O[C@@H](CN(C)C(C)=O)[C@@H](C)CN([C@H](C)CO)S2(=O)=O
  A = 6.0 | B = 35.2 | C = 98.7* | D = x
> C[C@@H]1CN([C@@H](C)CO)S(=O)(=O)c2ccc(C#CC3CC3)cc2O[C@H]1CN(C)CC1CCOCC1
  A = 1.2 | B = 25.7 | C = 87.2* | D = x
> C[C@@H]1CN([C@H](C)CO)S(=O)(=O)c2ccc(C#Cc3ccccn3)cc2O[C@@H]1CN(C)Cc1ccccc1
  A = -6.4 | B = -5.5 | C = -0.6 | D = x

Entries from the list above that have a COOH group:
Key to letters – A = ERp5 inh; B = Yeast UUG start; C = Cneo AK release; D = PDI turbidity
> O=C(O)C[C@@H]1C[C@@H]2c3cc(NC(=O)CC4CC4)ccc3O[C@@H]2[C@@H](CO)O1
  A = 4.5 | B = 49.8* | C = -1.0 | D = x
> O=C(O)C[C@@H]1C[C@@H]2c3cc(NC(=O)CC4CC4)ccc3O[C@@H]2[C@H](CO)O1
  A = -3.7 | B = -6.7 | C = -11.3 | D = x
> O=C(O)[C@H]1[C@H](CO)[C@H]2Cn3c(ccc(C4=CCCCC4)c3=O)[C@H]2N1C(=O)Cc1cccnc1
  A = 0.1 | B = x | C = x | D = x
